From patent publication US11332499B2, “Cyclic peptides and methods of use thereof” (Regents of the University of Minnesota, priority 2018, dated 2022)
“And” between values parts separate entries of the source, which are not always exact repeats. Equal entries are not always repeated. Where two headings read alike, the source gives them in different places.

By UniProt entry, the sequences of proteins in these tests, tags left out.
UniProt P41149, whole entry: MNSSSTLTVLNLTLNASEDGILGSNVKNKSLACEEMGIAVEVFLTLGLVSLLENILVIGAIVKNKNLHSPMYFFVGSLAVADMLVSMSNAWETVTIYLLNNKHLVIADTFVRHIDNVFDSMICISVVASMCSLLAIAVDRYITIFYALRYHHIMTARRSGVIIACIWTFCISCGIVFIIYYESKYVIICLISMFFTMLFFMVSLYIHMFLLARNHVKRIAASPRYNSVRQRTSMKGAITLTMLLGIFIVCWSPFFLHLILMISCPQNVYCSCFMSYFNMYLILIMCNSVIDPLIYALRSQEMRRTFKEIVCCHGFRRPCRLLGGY
UniProt Q01727, whole entry: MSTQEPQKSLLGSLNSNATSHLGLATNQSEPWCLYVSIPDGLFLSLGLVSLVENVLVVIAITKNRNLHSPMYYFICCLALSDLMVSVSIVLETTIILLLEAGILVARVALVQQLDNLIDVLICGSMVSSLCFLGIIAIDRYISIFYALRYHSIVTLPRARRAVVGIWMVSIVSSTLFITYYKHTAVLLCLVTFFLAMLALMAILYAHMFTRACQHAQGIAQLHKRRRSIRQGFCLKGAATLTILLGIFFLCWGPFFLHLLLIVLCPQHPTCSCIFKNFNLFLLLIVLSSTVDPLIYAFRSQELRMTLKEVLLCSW
UniProt P56450, whole entry: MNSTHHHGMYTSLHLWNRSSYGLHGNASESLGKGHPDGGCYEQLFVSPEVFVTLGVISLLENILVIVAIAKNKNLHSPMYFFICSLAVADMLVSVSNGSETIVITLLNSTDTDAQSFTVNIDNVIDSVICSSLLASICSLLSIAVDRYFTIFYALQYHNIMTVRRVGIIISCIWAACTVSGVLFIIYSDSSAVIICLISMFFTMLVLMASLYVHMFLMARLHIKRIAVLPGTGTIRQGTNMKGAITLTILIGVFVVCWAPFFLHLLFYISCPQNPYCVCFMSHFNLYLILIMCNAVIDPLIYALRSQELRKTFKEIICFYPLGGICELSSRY
UniProt P33033, whole entry: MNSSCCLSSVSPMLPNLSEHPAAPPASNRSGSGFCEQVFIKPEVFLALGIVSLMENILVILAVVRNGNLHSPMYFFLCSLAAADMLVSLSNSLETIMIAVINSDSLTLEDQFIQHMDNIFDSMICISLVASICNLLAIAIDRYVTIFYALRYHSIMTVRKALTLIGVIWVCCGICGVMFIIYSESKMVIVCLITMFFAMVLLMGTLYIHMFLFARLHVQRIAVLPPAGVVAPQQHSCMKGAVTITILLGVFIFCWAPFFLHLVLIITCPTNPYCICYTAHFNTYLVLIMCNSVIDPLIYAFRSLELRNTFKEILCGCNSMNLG

Tests used:
mMC5R = mMC5R (Mus musculus, UniProt P41149); assay: AlphaScreen cAMP assay, agonist and inverse agonist activity, HEK293 cells stably expressing mMC5R; assay type: cell-based; settings: for mMC5R Inverse Agonist, percent change from basal: no sigmoidal curve
mMC1R = mMC1R (Mus musculus, UniProt Q01727); assay: AlphaScreen cAMP assay, agonist activity, HEK293 cells stably expressing mMC1R; assay type: cell-based; settings: for mMC1R percent maximal stimulatory response: at 100 μM, relative to NDP-MSH
mMC4R [1] = molecular target: T1, mMC4R (Mus musculus, UniProt P56450); assay: AlphaScreen cAMP assay, agonist activity, HEK293 cells stably expressing mMC4R; assay type: cell-based; settings: Table 2; for EC50: read-out: mMC4R EC50, agonist
mMC3R = mMC3R (Mus musculus, UniProt P33033); assay: AlphaScreen cAMP assay, agonist activity, HEK293 cells stably expressing mMC3R; assay type: cell-based; settings: Table 2; for EC50: read-out: mMC3R EC50, agonist; for mMC3R percent maximal stimulatory response: at 100 μM
mMC4R [2] = molecular target: T1, mMC4R
[3] = read-out: mMC1R EC50, Table 2, agonist, >100,000 = no agonist activity up to 100 μM

Row | EC50 (mMC4R [1]) [µM] | EC50 (mMC3R) [µM] | mMC5R Inverse Agonist, percent change from basal (mMC5R; Table 2, at 100 μM) [% @] | EC50 (mMC1R; [3]) [µM] | selectivity ratio (mMC4R [2]) | mMC1R percent maximal stimulatory response (mMC1R; Table 2) [% @ 100 μM] | mMC3R percent maximal stimulatory response (mMC3R) [% @] | SMILES | also measured
1 |  |  |  |  |  |  |  | CCCC[C@@H]1NC(=O)[C@H](CO)NC(=O)[C@H](CCCNC(=N)N)NC(=O)[C@H](Cc2ccccc2)NC(=O)[C@H](Cc2ccccc2)NC(=O)[C@H](CCCNC(=N)N)NC(=O)[C@@H]2CCCN2C(=O)[C@H]2CCCN2C1=O | EC50 (mMC5R; read-out: Inverse Agonist mMC5R EC50, Table 7, tested form: TFA): > 100 µM; EC50 (mMC1R; read-out: Agonist mMC1R EC50, Table 7, >100,000 = not stimulated greater than 20% at 100 μM, tested form: TFA): > 100 µM
2 | > 100 | > 100 | -35 | > 100 |  |  |  | N=C(N)NCCC[C@@H]1NC(=O)[C@@H]2CCCN2C(=O)[C@H]2CCCN2C(=O)[C@H](Cc2ccccc2)NC(=O)CNC(=O)[C@H](CC(N)=O)NC(=O)[C@H](Cc2ccccc2)NC(=O)[C@H](Cc2ccccc2)NC1=O | 
3 | > 100 | > 100 | -25 |  | 800 | 65 |  | N=C(N)NCCC[C@@H]1NC(=O)[C@@H]2CCCN2C(=O)[C@H]2CCCN2C(=O)[C@H](Cc2ccccc2)NC(=O)[C@H](CC(=O)O)NC(=O)[C@H](CC(N)=O)NC(=O)[C@H](Cc2ccccc2)NC(=O)[C@H](Cc2ccccc2)NC1=O | 
4 | > 100 | > 100 | -30 | > 100 | 7 and 8 |  |  | N=C(N)NCCC[C@@H]1NC(=O)[C@@H]2CCCN2C(=O)[C@H]2CCCN2C(=O)[C@H](Cc2ccccc2)NC(=O)[C@H](CO)NC(=O)[C@H](CC(N)=O)NC(=O)[C@H](Cc2ccccc2)NC(=O)[C@H](Cc2ccccc2)NC1=O | 
5 | > 100 |  |  |  | 250 | 60 | 45 | N=C(N)NCCC[C@@H]1NC(=O)[C@@H]2CCCN2C(=O)[C@H]2CCCN2C(=O)[C@H](Cc2ccccc2)NC(=O)[C@H](CCCCN)NC(=O)[C@H](CC(N)=O)NC(=O)[C@H](Cc2ccccc2)NC(=O)[C@H](Cc2ccccc2)NC1=O | mMC5R percent maximal stimulatory response (mMC5R; Table 2, at 100 μM): 45% @
6 |  |  |  |  |  | 80 | 25 | CC(C)C[C@@H]1NC(=O)[C@H](CC(N)=O)NC(=O)[C@H](Cc2ccccc2)NC(=O)[C@H](Cc2ccccc2)NC(=O)[C@H](CCCNC(=N)N)NC(=O)[C@@H]2CCCN2C(=O)[C@H]2CCCN2C(=O)[C@H](Cc2ccccc2)NC1=O | mMC4R percent maximal stimulatory response (mMC4R [1]; at 100 μM): 25% @; EC50 (mMC5R; read-out: mMC5R EC50, Table 2, agonist): > 100 µM
